Literature values in patent publication US20200352917A1, “MEDICATED SPRAY FOR TREATMENT OF SUBSTANCE ABUSE, OVERDOSE, ADDICTION AND IMPULSE CONTROL DISORDERS” (published 2020).

Conditions: water and aqueous alcohol, in the form of a salt such as a hydrochloride

C=CCN1CC[C@]23c4c5ccc(O)c4O[C@H]2C(=O)CC[C@@]3(O)[C@H]1C5
solubility: freely soluble
